From PubChem BioAssay AID463210 (The Scripps Research Institute Molecular Screening Center, 2010) come the findings set out here.

Sequences of proteins named here, by UniProt entry; tags and fusion partners are left off. A change or cut given only in a name is not applied to a line headed by its entry.
UniProt P55210: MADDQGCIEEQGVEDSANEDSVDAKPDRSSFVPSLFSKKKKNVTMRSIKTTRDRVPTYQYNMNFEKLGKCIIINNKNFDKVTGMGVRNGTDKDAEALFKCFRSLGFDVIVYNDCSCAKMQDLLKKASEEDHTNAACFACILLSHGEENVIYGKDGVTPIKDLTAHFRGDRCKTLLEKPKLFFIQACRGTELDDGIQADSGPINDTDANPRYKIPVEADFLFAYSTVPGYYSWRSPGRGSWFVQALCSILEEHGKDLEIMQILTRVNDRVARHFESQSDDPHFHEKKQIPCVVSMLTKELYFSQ

The entries are a selection whose mix differs from that of the whole data set. Activity calls are given as the source filed them.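 How the source made its calls: active means percent activation above the screen-wide mean plus 3 SD (cut at about 25% in these data); inactive means the rest.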

For the experiment, the target named is Caspase-7 (Homo sapiens) (UniProt P55210). Nature of the experiment: activation of procaspase-7 enzyme – biochemical, absorbance, HTS, human, counter-screen for procaspase-3 activator project, primary screen (AID 463210). The note with it: recombinant procaspase-7, Ac-DEVD-pNA absorbance 405 nm; at 8.5 µM; active compounds read high; D23A/D198A/D206A triple mutant, cannot self-cleave; scale: DMSO 0, 5 µM enzyme 100.
Consider `O=P(Nc1ccccn1)(c1ccc(Br)cc1)c1ccc(Br)cc1`, for which the activation is inactive: -2.29%.
In the case of `CN(C)C1(CNC(=O)c2ccc(Cl)c(S(N)(=O)=O)c2)CCCCC1` it was inactive: -10.8%; in that of `C[C@H]1OP(=O)(Oc2ccccc2)[C@H](O)[C@H](O)[C@H]1N=[N+]=[N-]` (stereo partly specified), inactive: 5.43%; in that of `O=P(Nc1nc2ccccc2s1)(c1ccccc1)c1ccccc1`, inactive: 3.62%.
As for `O=[As](O)(c1ccccc1)c1ccc(O)cc1`, the activation was inactive: 4.81%.
In the case of `O=[N+]([O-])c1ccc(O)c(/C=N/Nc2ccc([N+](=O)[O-])cc2[N+](=O)[O-])c1` it was inactive: 4.5%; in that of `O=[N+]([O-])c1ncn(CCn2cnc([N+](=O)[O-])n2)n1`, inactive: 10.1%.
Turning to `CC(=O)NC(SC(=S)N(C)C)C(Cl)(Cl)Cl` (stereo unspecified), the activation was inactive: -7.29%.
To `O=C(OC1CN2CCC1CC2)c1cccc(Cl)c1` (stereo unspecified) belongs inactive: 15.1%; to `Nc1ccc([As](=O)(O)c2ccc([N+](=O)[O-])cc2)cc1`, inactive: 3.2%.
In the case of `C(Cc1nn[nH]n1)Cc1nn[nH]n1` it was inactive: -1.38%.
To `CC(C)C(=O)NC(Sc1ccccc1)C(Cl)(Cl)Cl` (stereo unspecified) belongs inactive: 1.12%; to `O=P(Nc1nccs1)(c1ccccc1)c1ccccc1`, inactive: 7.75%; to `c1nnnn1CCn1cnnn1`, inactive: -1.35%.
`CCOc1ccc(C2=NCC(CBr)S2)cc1` (stereo unspecified): the activation was inactive: -11.2%.
Turning to `O=P1(Nc2nc3ccc(Cl)cc3s2)COc2ccccc2O1` (stereo unspecified), the activation was inactive: 2.86%.
In the case of `CC(C)(C)C(=O)NC(Sc1ccccc1)C(Cl)(Cl)Cl` (stereo unspecified) it was inactive: 3.26%.
In the case of `C[C@@H]1C=CCP(=O)(Oc2ccccc2)O1` (stereo partly specified) it was inactive: 2.24%.
To `C[C@H]1OP(=O)(Oc2ccccc2)C[C@@H]2O[C@@H]21` (stereo partly specified) belongs inactive: 8.74%; to `Cc1ccccc1CN(C)C(=O)COC(=O)C(O)(c1ccccc1)c1ccccc1`, inactive: -0.8%; to `CC(=O)c1ccc(N2CC2c2ccncc2)cc1` (stereo unspecified), inactive: -6.85%.
`CC(=O)Nc1ccc(Oc2c([N+](=O)[O-])cc([N+](=O)[O-])cc2[N+](=O)[O-])cc1`: the activation is inactive: -0.66%.
In the case of `CC(=O)Nc1ccc([As](=O)(O)O)c(O)c1` it was inactive: -0.74%; in that of `CCOC(=O)NC(Sc1ccccc1)C(Cl)(Cl)Cl` (stereo unspecified), inactive: -1.19%; in that of `Cc1ccc(NP(=O)(Oc2cccc(C)c2)Oc2cccc(C)c2)nc1`, inactive: -5.7%.
In the case of `c1ccc(-c2nn[nH]n2)c(-c2nn[nH]n2)c1` it was inactive: -8.45%; in that of `CCNC(=S)/N=C(\N)N[N+](=O)[O-]`, inactive: 17%; in that of `O=C(NC1CCS(=O)(=O)C1)NP(=S)(Oc1ccccc1)Oc1ccccc1` (stereo unspecified), inactive: 2.38%.
In the case of `CCC(=O)N1C2C3N(C(=O)CC)C1C1N(C(=O)CC)C(C(N1C(=O)CC)N3C(=O)CC)N2C(=O)CC` it was inactive: 4.95%; in that of `O=C(OC1CN2CCC1CC2)c1ccccc1` (stereo unspecified), inactive: 0.01%.
In the case of `Cc1ccc(OP(=O)(Nc2ccccn2)Oc2ccc(C)cc2)cc1`, the activation is inactive: 3.25%.
In the case of `CC(=O)NC(SC(=S)N(CC(C)C)CC(C)C)C(Cl)(Cl)Cl` (stereo unspecified) it was inactive: -9.84%.
To `COC(=O)c1cc2c(s1)N=C(c1ccccc1)N(C)P2(=O)N1CCOCC1` (stereo unspecified) belongs inactive: 5.1%; to `CN(C)C(=O)Oc1noc2ccccc12`, inactive: 13.6%.
To `Cc1ccccc1OP(=O)(Nc1ccccn1)Oc1ccccc1C` belongs inactive: -15.1%; to `CC(NC(=O)COC(=O)C(O)(c1ccccc1)c1ccccc1)c1ccccc1` (stereo unspecified), inactive: 7.9%.
Turning to `O=P(Nc1nc2ccc(Cl)cc2s1)(c1ccccc1)c1ccccc1`, the activation is inactive: 4.6%.
In the case of `O=C(O)c1ccccc1[As](=O)(O)O`, the activation was inactive: -3.48%.
To `CC(=O)Nc1ccc([As](=O)(O)O)cc1` belongs inactive: -9.04%; to `Cc1ccc(NP(=O)(Oc2ccccc2F)Oc2ccccc2F)nc1`, inactive: 10.6%.
To `CN(C(=O)Cc1ccc(Cl)c(Cl)c1)[C@H]1CCCC[C@@H]1N1CCCC1` belongs inactive: 5.06%.
For the molecule `CCOP(=O)(Nc1ccccc1)OCC`, the activation is inactive: 5.99%.
In the case of `Cc1cc(SC(NC(=O)c2ccc(F)cc2)C(Cl)(Cl)Cl)ncn1` (stereo unspecified) it was inactive: -27.9%; in that of `O=[N+]([O-])c1cc([N+](=O)[O-])c(CCN2CCOCC2)c([N+](=O)[O-])c1`, inactive: -4.8%.
To `CCN(N=Nc1nonc1N)c1nonc1N` belongs inactive: -0.65%; to `Cc1ccc(N/C(=N/P(=O)(N2CCOCC2)N2CCOCC2)N2CCOCC2)cc1`, inactive: 5.11%.
In the case of `CN(C(=O)Cc1ccc(Cl)c(Cl)c1)[C@H]1CCCC[C@H]1N1CCCC1` it was inactive: 13.2%; in that of `NC(=O)c1cc([N+](=O)[O-])cc([N+](=O)[O-])c1N`, inactive: -1.51%; in that of `Clc1ccc(Cl)c(NC2=NCC(CBr)S2)c1` (stereo unspecified), inactive: 13.9%.
As to `CN1CCCC(OC(=O)C(c2ccccc2)c2ccccc2)C1` (stereo unspecified), the activation is inactive: -0.58%.
In the case of `Cc1ccc(OP(=O)(Nc2nccs2)Oc2ccc(C)cc2)cc1` it was inactive: 2.93%; in that of `COc1ccccc1OP(=O)(Nc1ccc(C)cn1)Oc1ccccc1OC`, inactive: -0.98%; in that of `Cc1c2non([O-])c-2c(C)[n+](=O)[n+]1[O-]`, inactive: -28.2%.
To `O=C(NC(Sc1ccncn1)C(Cl)(Cl)Cl)c1ccccc1` (stereo unspecified) belongs inactive: -23.7%.
In the case of `Oc1ccccc1CNc1ccccn1` it was inactive: 1.61%.
For the molecule `CC(C)CC(=O)NC(Sc1ccc(Cl)cc1)C(Cl)(Cl)Cl` (stereo unspecified), the activation is inactive: 0.65%.
To `Nc1cc(N)c2nonc2c1[N+](=O)[O-]` belongs inactive: -1.46%; to `COc1ccc(C2=NCC(CBr)S2)cc1` (stereo unspecified), inactive: -21.1%; to `CCc1nc2c(n1)c1c(non1O)c1c2no[n+]1[O-]`, inactive: -4.7%.
To `O=[N+]([O-])c1cc([N+](=O)[O-])c(CCNc2ccccc2)c([N+](=O)[O-])c1` belongs inactive: -8.19%; to `Cc1ccc(NP(=O)(Oc2ccccc2)Oc2ccccc2)nc1`, inactive: -1.43%.
Turning to `O=[N+]([O-])c1cccc2n[nH]nc12`, the activation was inactive: 15.2%.
In the case of `CC(=O)N1C2C3N(C(C)=O)C1C1N(C(C)=O)C(C(N1C(C)=O)N3C(C)=O)N2C(C)=O` it was inactive: 16.6%; in that of `CCN(/C(=N/P(=O)(N1CCOCC1)N1CCOCC1)N1CCOCC1)c1ccc(OC)cc1`, inactive: -10.1%.
In the case of `C[N+]1=C2C=CC=CC=C2SC12C([N+](=O)[O-])=CC([N+](=O)[O-])=C[C-]2[N+](=O)[O-]` (stereo unspecified) it was inactive: -24%; in that of `Nc1ccc([As](=O)(O)c2ccc(N)cc2)cc1`, inactive: 8.55%; in that of `CC1CCN(C(=O)Oc2c(Cl)cc(Cl)c3cccnc23)CC1`, inactive: 11.6%.
To `CN(C)C(=O)OCCc1n(C)cc[n+]1C` belongs inactive: 12.7%; to `CC(C)=N/N=C(\N)N[N+](=O)[O-]`, inactive: 1.9%.
As to `O=C(Nc1cc([As](=O)(O)O)ccc1O)c1ccccc1`, the activation is inactive: -5.13%.
In the case of `O=[N+]([O-])c1ncn(CCn2ncnc2[N+](=O)[O-])n1` it was inactive: 2.76%.
In the case of `CC(C)(C)C(=O)NC(Sc1ccncn1)C(Cl)(Cl)Cl` (stereo unspecified) it was inactive: -46.6%; in that of `O=[N+]([O-])c1cccc(NC2=NCC(CBr)S2)c1` (stereo unspecified), inactive: -6.89%.
To `CCOC(=O)Nc1ccc([As](=O)(O)O)c(O)c1` belongs inactive: 1.66%; to `Cc1cc(SC(NC(=O)c2ccccc2)C(Cl)(Cl)Cl)nc(C(C)C)n1` (stereo unspecified), inactive: -33.9%; to `CCOC(=O)Nc1cccc([As](=O)(O)O)c1`, inactive: -3.39%.
Turning to `O=P(Nc1ccccn1)(c1cccc2ccccc12)c1cccc2ccccc12`, the activation is inactive: -6.28%.
`Cc1cc(SC(NC=O)C(Cl)(Cl)Cl)ncn1` (stereo unspecified): the activation is inactive: -27.3%.
In the case of `COP1(=S)c2c(C)nn(CCC#N)c2N=C(c2ccc(F)cc2)N1C` (stereo unspecified) it was inactive: -2.82%; in that of `O=C(Nc1ccncc1[N+](=O)[O-])c1ccc([N+](=O)[O-])cc1[N+](=O)[O-]`, inactive: 0.02%; in that of `O=C(COc1ccccc1)OC1CN2CCC1CC2` (stereo unspecified), inactive: -2.9%.
For `O=C(OC1CN2CCC1CC2)c1cccc([N+](=O)[O-])c1` (stereo unspecified), the activation is inactive: 6.24%.
To `CCOC(=O)c1ccc(NC(=O)C(C)(CCl)SC)cc1` (stereo unspecified) belongs inactive: 12.9%; to `CCC(C)N(CC(C)C)C(=S)SC(NC(C)=O)C(Cl)(Cl)Cl` (stereo unspecified), inactive: 6.78%; to `Cc1c2c(nc3ccccc13)SC(C(Cl)Cl)C2` (stereo unspecified), inactive: 5.97%.
Turning to `Cc1cc(=O)[nH]c(N[N+](=O)[O-])n1`, the activation was inactive: -9.51%.
To `O=C(OC1CN2CCC1CC2)C12CC3CC(CC(C3)C1)C2` (stereo unspecified) belongs inactive: 4.56%; to `COc1cc(I)ccc1[As](=O)(O)O`, inactive: -7.85%; to `COc1ccc2nc(NP(=O)(c3ccccc3)c3ccccc3)sc2c1`, inactive: -0.71%.
In the case of `COc1ccc(N/C(=N/P(=O)(N2CCOCC2)N2CCOCC2)N2CCOCC2)cc1` it was inactive: 2.75%; in that of `COc1cc(C(=O)NCC2(N3CCOCC3)CCCCC2)ccc1OCC(C)C`, inactive: 0.77%.
In the case of `C[As](=O)(O)c1cccc(C(=O)O)c1` it was inactive: 0.73%.
`O=[As](O)(c1ccc(O)cc1)c1ccccc1O`: the activation is inactive: 8.11%.
Consider `Cc1ccc(OP(=O)(Nc2ccc([N+](=O)[O-])cn2)Oc2ccc(C)cc2)cc1`, for which the activation was inactive: 5.78%.
To `Cc1ccc2nc3c(c(C)c2c1)CC(C(Cl)Cl)S3` (stereo unspecified) belongs inactive: -12.8%.
In the case of `ClCCSc1nnc(-c2cccnc2)o1` it was inactive: 0.09%; in that of `CC(C)c1ccc(OP(=O)(Nc2ccccn2)Oc2ccccc2F)cc1` (stereo unspecified), inactive: 1.57%.
In the case of `O=[N+]([O-])c1cc([N+](=O)[O-])c(-c2ccn[nH]2)s1` it was inactive: -3.78%; in that of `CCN(CC)C(=S)SC(NC=O)C(Cl)(Cl)Cl` (stereo unspecified), inactive: 0.89%; in that of `CC(C)NC(=O)NP(=O)(Oc1ccccc1)Oc1ccccc1`, inactive: 1.13%.
For the molecule `O=P(Nc1nccs1)(c1ccccc1)c1nc2ccccc2s1` (stereo unspecified), the activation is inactive: -20.9%.
